Measured values taken from paper PMC6522510 (Nature Communications, 2019).

Tests used:
Experiment in all cases: Secondary dose-response HTS, Cell Titer Glo; call rule not given here
[1] = test system: MV4-11; conditions: secondary high-throughput screen
[2] = test system: CHRF288-11; conditions: Homo sapiens, read-out: average effective concentration, CHRF288-11
[3] = test system: ML2; conditions: Homo sapiens, ML-2, read-out: average effective concentration, ML-2
[4] = test system: M07e; conditions: Homo sapiens, M-07e, read-out: average effective concentration, M07e
[5] = test system: U937; conditions: Homo sapiens, U-937, read-out: average effective concentration, U937
[6] = test system: CMK; type: cell-based; conditions: Homo sapiens, read-out: average effective concentration, CMK
[7] = test system: MOLM-13; conditions: secondary high-throughput screen

N#CC[C@H](C1CCCC1)n1cc(-c2ncnc3[nH]ccc23)cn1 [Ruxolitinib, ruxolitinib]
average effective concentration, MV4-11 [1]: Inactive
EC50 [2]: > 10 µM
EC50 [3]: 10 µM
EC50 [4]: 10 µM
EC50 [5]: 3.4 µM
EC50 [6]: 8.2 µM
average effective concentration, MOLM-13 [7]: Inactive
